Reference: PubChem BioAssay (NCI)
This is a selection; strong and weak results do not stand in their true shares.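 Single-dose data. Exposure time 48 hours. Values below 10 considered active.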 Activity calls are given as the source filed them.

Columns and labels:
Assay in all cases: NCI-60 one-dose screen, 48 h (100 = growth as untreated, 0 = no growth, -100 = all killed)
Details in all cases: 10 µM unless noted
NCI-H23 lung = tested on: NCI-H23 lung
NCI-H226 lung = tested on: NCI-H226 lung
NCI-H322M lung = tested on: NCI-H322M lung
NCI-H460 lung = tested on: NCI-H460 lung
HOP-92 NSCLC = tested on: HOP-92 NSCLC
NCI-H522 lung = tested on: NCI-H522 lung
A549/ATCC NSCLC = tested on: A549/ATCC NSCLC
786-0 renal = tested on: 786-0 renal
COLO 205 colon = tested on: COLO 205 colon
DU-145 prostate = tested on: DU-145 prostate
K-562 leukemia = tested on: K-562 leukemia
MALME-3M melanoma = tested on: MALME-3M melanoma
MDA-MB-231 breast = tested on: MDA-MB-231 breast
RXF 393 renal = tested on: RXF 393 renal
SF-268 CNS = tested on: SF-268 CNS
SF-295 CNS = tested on: SF-295 CNS
SF-539 CNS = tested on: SF-539 CNS
UACC-257 melanoma = tested on: UACC-257 melanoma
M14 melanoma = tested on: M14 melanoma
HOP-62 NSCLC = tested on: HOP-62 NSCLC

Measured: growth

CCCCCCCNP(=S)(Cl)Cl
inactive: NCI-H23 lung 101% | NCI-H226 lung 96.8% | NCI-H322M lung 101% | NCI-H460 lung 108% | HOP-92 NSCLC 99.9% | NCI-H522 lung 27.7% | A549/ATCC NSCLC 103% | 786-0 renal 101% | COLO 205 colon 107% | DU-145 prostate 108% | K-562 leukemia 96.4% | MALME-3M melanoma 92.5% | MDA-MB-231 breast 104% | RXF 393 renal 115% | SF-268 CNS 102% | SF-295 CNS 99.5% | SF-539 CNS 94.3% | UACC-257 melanoma 112% | M14 melanoma 103%

O=[N+]([O-])C1C(O)C(O)C([N+](=O)[O-])C(O)C1O (configuration not stated)
inactive: NCI-H23 lung 111% | NCI-H226 lung 99.5% | NCI-H322M lung 95.7% | HOP-62 NSCLC 88.7% | NCI-H460 lung 105% | A549/ATCC NSCLC 102% | 786-0 renal 104% | COLO 205 colon 99.2% | DU-145 prostate 108% | K-562 leukemia 110% | MALME-3M melanoma 97.5% | MDA-MB-231 breast 92.1% | RXF 393 renal 102% | SF-268 CNS 112% | SF-295 CNS 95.3% | SF-539 CNS 106% | M14 melanoma 98%

Nc1ccc(CCCCOc2ccccc2)cc1
inactive: NCI-H23 lung 70.9% | NCI-H322M lung 102% | HOP-62 NSCLC 97% | NCI-H460 lung 91.4% | HOP-92 NSCLC 62% | NCI-H522 lung 66.2% | A549/ATCC NSCLC 96.7% | 786-0 renal 81.3% | COLO 205 colon 106% | DU-145 prostate 88.8% | K-562 leukemia 63.3% | MALME-3M melanoma 98% | MDA-MB-231 breast 80.4% | RXF 393 renal 83.5% | SF-268 CNS 65.9% | SF-295 CNS 99.9% | SF-539 CNS 86.3% | UACC-257 melanoma 96.4% | M14 melanoma 98.2%

O=C(O)Cc1ccc(N(CCCl)CCCl)cc1
inactive: 786-0 renal 107% | K-562 leukemia 109% | MALME-3M melanoma 102% | MDA-MB-231 breast 113% | RXF 393 renal 110%

CCN(CCCl)C1c2ccccc2-c2ccccc21
inactive: NCI-H23 lung 95.9% | NCI-H226 lung 95.7% | HOP-62 NSCLC 94.7% | NCI-H460 lung 100% | HOP-92 NSCLC 91.3% | NCI-H522 lung 89.9% | A549/ATCC NSCLC 91.3% | 786-0 renal 104% | COLO 205 colon 102% | DU-145 prostate 102% | K-562 leukemia 100% | MALME-3M melanoma 88.2% | MDA-MB-231 breast 98.6% | RXF 393 renal 102% | SF-268 CNS 102% | SF-295 CNS 99.7% | SF-539 CNS 103% | UACC-257 melanoma 94% | M14 melanoma 97%

[N-]=[N+]=NC(=O)c1cccc([N+](=O)[O-])c1
inactive: NCI-H23 lung 51.8% | NCI-H226 lung 79.8% | NCI-H322M lung 96.7% | HOP-62 NSCLC 91.4% | NCI-H460 lung 42.4% | NCI-H522 lung 36.8% | 786-0 renal 77.8% | COLO 205 colon 107% | DU-145 prostate 80.6% | K-562 leukemia 41.2% | MALME-3M melanoma 82.3% | MDA-MB-231 breast 86.8% | RXF 393 renal 101% | SF-268 CNS 96.8% | SF-295 CNS 17.6% | SF-539 CNS 88.3% | UACC-257 melanoma 87% | M14 melanoma 76.8%
